Species on record: Homo sapiens
Assay: Selectivity ratio of Kd for human RIPK3 to Kd for human RIPK2

`Cc1ccc(-c2cn([C@H]3CC[C@@H](N)CC3)c3ncnc(N)c23)c(F)c1` gave a Ratio of 260.

Reference: ChEMBL document CHEMBL5131564, “Discovery of Potent and Selective Receptor-Interacting Serine/Threonine Protein Kinase 2 (RIPK2) Inhibitors for the Treatment of Inflammatory Bowel Diseases (IBDs)” (J Med Chem, 2022)
